Results: patent US20190231757A1, “COMBINATION OF SPLEEN TYROSINE KINASE INHIBITORS AND OTHER THERAPEUTIC AGENTS” (Takeda Pharmaceutical Company Limited, priority 2016, published 2019)

Experiment: Body weight and tolerability, Ly19 bendamustine study (Example 4)

## Cn1c(CCCC(=O)O)nc2cc(N(CCCl)CCCl)ccc21 [bendamustine]
Day 0, bendamustine 2.0 mg/kg IV BIW x2, alone or with Compound A 60 mg/kg PO QD x14
  animal body weight (g), Day 0: 20.4 g
Day 3, bendamustine 2.0 mg/kg, alone or with Compound A 60 mg/kg
  animal body weight (g), Day 3: 20.8 g
Compound A 60 mg/kg, bendamustine 1.0 mg/kg, alone or combined
  animal body weight (g), Day 7: 20.4 g
Bendamustine 2.0 mg/kg, alone or with Compound A 60 mg/kg
  animal body weight (g), Day 7: 21.1 g
